# Assay results taken from ChEMBL document CHEMBL1687811, “Outbreak of meropenem-resistant Serratia marcescens comediated by chromosomal AmpC beta-lactamase overproduction and outer membrane protein loss” (2010).
# System: Escherichia coli
# Conditions: J53
sequence,measurement,value
GENTAMICIN,MIC,0.5 µg/mL
